Measured values: patent publication US5589489A, “Cyclic amide derivatives for treating asthma” (Zeneca Limited, priority 1993, dated 1996)

Protein sequences, listed by entry. Tags and fused reporters are not part of them.
UniProt P21452, whole entry: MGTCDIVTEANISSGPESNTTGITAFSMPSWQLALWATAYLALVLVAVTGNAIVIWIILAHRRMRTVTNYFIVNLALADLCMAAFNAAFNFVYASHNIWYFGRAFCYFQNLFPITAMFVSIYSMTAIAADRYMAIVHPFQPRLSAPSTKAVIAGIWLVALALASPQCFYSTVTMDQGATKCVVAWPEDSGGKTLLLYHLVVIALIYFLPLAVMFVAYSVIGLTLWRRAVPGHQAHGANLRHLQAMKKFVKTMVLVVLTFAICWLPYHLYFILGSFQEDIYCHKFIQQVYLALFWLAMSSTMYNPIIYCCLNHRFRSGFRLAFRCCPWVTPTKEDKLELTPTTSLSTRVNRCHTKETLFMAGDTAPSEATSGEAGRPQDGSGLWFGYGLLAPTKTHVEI

Target: human NK2 receptor (Homo sapiens, UniProt P21452)
Assay: Neurokinin A (NKA) Receptor-binding Assay (Test A), 3H-NKA binding to MEL cells expressing the NK2 receptor
Details: read-out: IC50 versus ^3 H-NKA binding to MEL; standard compound, initial use of the assay; human NK2 receptor expressed in MEL cells
Source text: The selectivity of a Compound for binding at the NK2 receptor may be shown by determining its binding at other receptors using standard assays, for example, one using a tritiated derivative of SP in a tissue preparation selective for NK1 receptors or one using a tritiated derivative of NKB in a tissue preparation selective for NK3 receptors.
It will be appreciated that the implications of a Compound's activity in Test A or Test B is not limited to asthma, but rather, that the test provides evidence of general antagonism of NKA. […] For example, the compound described in Example 4 was typically found to have a Ki of 3.5 nM. In Test B, a pKB of 5 or greater was typically measured for a Compound of the invention. For example, a pKB of 7.7 was measured for the compound described in Example 4. It should be noted that there may not always be a direct correlation between the activities of Compounds measured as Ki values in Test A and the values measured in other assays, such as the pKB measured in Test B.

## CSCC[C@@H]1NC(=O)[C@H](CC(C)C)NC(=O)CNC(=O)[C@H](Cc2ccccc2)NC(=O)[C@H](Cc2c[nH]c3ccccc23)NC(=O)[C@H](CCC(N)=O)NC1=O
  IC50: 30 nM
